# In ChEMBL document CHEMBL5154739, “Structure-activity relationships of N-terminal variants of peptidomimetic tissue transglutaminase inhibitors” (Eur J Med Chem, 2022):
# Calls of active or inactive are those of the source. No cut-off for these calls is given here.
# What was measured:
# [1] = target: T1, Protein-glutamine gamma-glutamyltransferase (Homo sapiens) (UniProt P21980); assay: Inhibition of TG2 (unknown origin) using Cbz-Glu(gamma-p-nitrophenyl ester)Gly (AL5) as substrate assessed as Kinact/Ki ratio and measured by colorimetric assay
# T1 sequence (whole entry): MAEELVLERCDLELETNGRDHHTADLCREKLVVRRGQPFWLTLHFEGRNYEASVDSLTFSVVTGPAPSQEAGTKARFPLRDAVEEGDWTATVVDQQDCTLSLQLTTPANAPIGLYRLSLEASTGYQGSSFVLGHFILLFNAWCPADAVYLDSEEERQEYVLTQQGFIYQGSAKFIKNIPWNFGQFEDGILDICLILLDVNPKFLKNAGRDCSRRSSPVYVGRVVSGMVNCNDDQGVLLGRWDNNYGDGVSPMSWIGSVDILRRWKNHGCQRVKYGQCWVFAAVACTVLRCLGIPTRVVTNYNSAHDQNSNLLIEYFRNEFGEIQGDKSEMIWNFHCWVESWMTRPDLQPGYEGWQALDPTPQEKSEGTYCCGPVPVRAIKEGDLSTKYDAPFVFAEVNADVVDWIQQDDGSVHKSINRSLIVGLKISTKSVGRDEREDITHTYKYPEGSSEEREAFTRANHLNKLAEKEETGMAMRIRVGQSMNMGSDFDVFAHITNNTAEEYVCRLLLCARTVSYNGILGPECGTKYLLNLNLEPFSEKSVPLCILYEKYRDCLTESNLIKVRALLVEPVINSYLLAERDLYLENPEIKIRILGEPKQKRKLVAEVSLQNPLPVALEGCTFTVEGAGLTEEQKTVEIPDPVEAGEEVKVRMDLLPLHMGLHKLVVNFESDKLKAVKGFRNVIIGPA
# [2] = target: T1, Protein-glutamine gamma-glutamyltransferase (Homo sapiens); assay: Inhibition of TG2 (unknown origin) using Cbz-Glu(gamma-p-nitrophenyl ester)Gly (AL5) as substrate and measured by colorimetric assay
# [3] = target: T1, Protein-glutamine gamma-glutamyltransferase (Homo sapiens); assay: Inhibition of GTP binding to TG2 (unknown origin) measured by GTP Gamma-S-FL BODIPY assay
Ratio [1],Kinact [2] [min⁻¹],inhibition [3],SMILES
48.4 10^3/M/min,1.34,,C=CC(=O)NCCCC[C@H](NC(=O)c1ccccc1)C(=O)N1CCN(C(=O)c2cccc3ccccc23)CC1
,1.03,Active,C=CC(=O)NCCCC[C@H](NC(=O)Cc1ccccc1)C(=O)N1CCN(C(=O)c2cccc3ccccc23)CC1
